# Measured values reported in PubChem BioAssay AID652154 (Broad Institute, 2013).
# The entries are a selection whose mix differs from that of the whole data set. Calls of active or inactive are those of the source.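 The calls were made as follows: active = mean replicate inhibition at least 60% with every replicate also reaching 60%; inconclusive = only one of the two criteria is met; inactive = mean below 60% and not all replicates reaching 60%.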
# Experiment: inhibitors of PAX8-driven TPO luciferase reporter, primary screen, RMG-I cells, single concentration (AID 652154);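 also: luciferase light reporting Pax8 driven TPO promoter activity; plate controls were median of neutral control wells for no effect and mitoxantrone controls for full effect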
# Settings: SteadyGlo, 24 h, at 12.6 µM, stronger effect = higher value
row,SMILES,inhibition
1,O=[As](O)(c1ccccc1)c1ccc(O)cc1,inactive: -4.13%
2,O=[N+]([O-])c1ncn(CCn2cnc([N+](=O)[O-])n2)n1,inactive: -13.8%
3,CC(=O)NC(SC(=S)N(C)C)C(Cl)(Cl)Cl (stereo not given),inactive: -6.28%
4,O=C(OC1CN2CCC1CC2)c1cccc(Cl)c1 (stereo not given),inactive: -11.4%
5,C/C(N)=N\P(=O)(OCc1ccccc1)OCc1ccccc1,inactive: -3.21%
6,Nc1ccc([As](=O)(O)c2ccc([N+](=O)[O-])cc2)cc1,inactive: -2.25%
7,C(Cc1nn[nH]n1)Cc1nn[nH]n1,inactive: -1.77%
8,O=P(Nc1ccccn1)(c1ccc(Br)cc1)c1ccc(Br)cc1,inactive: 4.71%
9,CN(C)C1(CNC(=O)c2ccc(Cl)c(S(N)(=O)=O)c2)CCCCC1,inactive: -11.2%
10,Nc1ccc(CCCCOc2ccccc2)cc1,inactive: -92.7%
11,COc1ccc(N)c([N+](=O)[O-])c1[N+](=O)[O-],inactive: 4.55%
12,O=P(Nc1nc2ccccc2s1)(c1ccccc1)c1ccccc1,inactive: -7.61%
13,C[C@H]1OP(=O)(Oc2ccccc2)[C@H](O)[C@H](O)[C@H]1N=[N+]=[N-] (stereo not given in full),inactive: -1.9%
14,CC(C)C(=O)NC(Sc1ccccc1)C(Cl)(Cl)Cl (stereo not given),inactive: 4.66%
15,Cc1ccccc1CN(C)C(=O)COC(=O)C(O)(c1ccccc1)c1ccccc1,inactive: 11.2%
16,C[C@@H]1C=CCP(=O)(Oc2ccccc2)O1 (stereo not given in full),inactive: 7.61%
17,C[C@H]1OP(=O)(Oc2ccccc2)C[C@@H]2O[C@@H]21 (stereo not given in full),inactive: -13.9%
18,N#C/C(=C\c1ccc(N(CCBr)CCBr)cc1)C(N)=O,inactive: -7.53%
19,CC(=O)c1ccc(N2CC2c2ccncc2)cc1 (stereo not given),inactive: -15.1%
20,COC(=O)C1(C)COP(=O)(NCc2ccccc2)OC1 (stereo not given),inactive: 9.77%
21,CC(=O)Nc1ccc([As](=O)(O)O)c(O)c1,inactive: 16.7%
22,CC(=O)Nc1ccc(Oc2c([N+](=O)[O-])cc([N+](=O)[O-])cc2[N+](=O)[O-])cc1,inactive: 16.8%

row,SMILES,inhibition
1,CCOc1ccc(C2=NCC(CBr)S2)cc1 (stereo not given),inactive: 17.3%
2,CC(C)(C)C(=O)NC(Sc1ccccc1)C(Cl)(Cl)Cl (stereo not given),inactive: -0.945%
3,O=C(OC1CN2CCC1CC2)c1ccccc1 (stereo not given),inactive: -4.68%
4,Cc1ccc(OP(=O)(Nc2ccccn2)Oc2ccc(C)cc2)cc1,inactive: 14.1%
5,CC(=O)NC(SC(=S)N(CC(C)C)CC(C)C)C(Cl)(Cl)Cl (stereo not given),inactive: -10.8%
6,Cc1ccccc1OP(=O)(Nc1ccccn1)Oc1ccccc1C,inactive: -11.8%
7,CC(NC(=O)COC(=O)C(O)(c1ccccc1)c1ccccc1)c1ccccc1 (stereo not given),inactive: 11.3%
8,CN(C)C(=O)Oc1noc2ccccc12,inactive: -5.87%
9,O=c1c2cc([N+](=O)[O-])ccc2[nH]c2c([N+](=O)[O-])cc([N+](=O)[O-])cc12,inactive: 6.18%
10,c1ccc(-c2nn[nH]n2)c(-c2nn[nH]n2)c1,inactive: 11.7%
11,Cc1ccc(NP(=O)(Oc2cccc(C)c2)Oc2cccc(C)c2)nc1,inactive: -6.68%
12,CCNC(=S)/N=C(\N)N[N+](=O)[O-],inactive: -2.41%
13,O=C(NC1CCS(=O)(=O)C1)NP(=S)(Oc1ccccc1)Oc1ccccc1 (stereo not given),inactive: -21%
14,O=P1(N(CCCl)CCCl)OCCC2CCCCN21 (stereo not given),inactive: -16.2%
15,Nc1cccc2ccc([As](=O)(O)O)cc12,inactive: 9.3%
16,CCN(N=Nc1nonc1N)c1nonc1N,inactive: -15.1%
17,CN(C)P(=O)(N(C)C)n1c(Nc2ccccc2)nnc1-c1ccccc1,inactive: -7.71%
18,O=P(Nc1nc2ccc(Cl)cc2s1)(c1ccccc1)c1ccccc1,inactive: 1.99%
19,O=C(O)c1ccccc1[As](=O)(O)O,inactive: 9.68%
20,CC(=O)Nc1ccc([As](=O)(O)O)cc1,inactive: -1.27%
21,CCCC1OP(N)(=O)OCC1CC (stereo not given),inactive: 9.49%
22,Cc1cc(SC(NC(=O)c2ccc(F)cc2)C(Cl)(Cl)Cl)ncn1 (stereo not given),inactive: 36.2%

row,SMILES,inhibition
1,Cc1ccc(NP(=O)(Oc2ccccc2F)Oc2ccccc2F)nc1,inactive: 2.23%
2,CN(C(=O)Cc1ccc(Cl)c(Cl)c1)[C@H]1CCCC[C@@H]1N1CCCC1,inactive: 1.4%
3,O=C(NC(Sc1ccncn1)C(Cl)(Cl)Cl)c1ccccc1 (stereo not given),inactive: 8.38%
4,Nc1cc(N)c2nonc2c1[N+](=O)[O-],inactive: -20.8%
5,CN(C(=O)Cc1ccc(Cl)c(Cl)c1)[C@H]1CCCC[C@H]1N1CCCC1,inactive: 2.08%
6,Cc1ccc(N/C(=N/P(=O)(N2CCOCC2)N2CCOCC2)N2CCOCC2)cc1,inactive: 4.02%
7,NC(=O)c1cc([N+](=O)[O-])cc([N+](=O)[O-])c1N,inactive: 7.18%
8,Clc1ccc(Cl)c(NC2=NCC(CBr)S2)c1 (stereo not given),inactive: 10.4%
9,COc1ccccc1OP(=O)(Nc1ccc(C)cn1)Oc1ccccc1OC,inactive: 24.2%
10,Cc1ccc(OP(=O)(Nc2nccs2)Oc2ccc(C)cc2)cc1,inactive: 3.28%
11,CCN(/C(=N/P(=O)(N1CCOCC1)N1CCOCC1)N1CCOCC1)c1ccc(OC)cc1,inactive: 17.2%
12,Nc1ccc([As](=O)(O)c2ccc(N)cc2)cc1,inactive: -9.52%
13,C[N+]1=C2C=CC=CC=C2SC12C([N+](=O)[O-])=CC([N+](=O)[O-])=C[C-]2[N+](=O)[O-] (stereo not given),inactive: 30.7%
14,c1cc(-c2nn[nH]n2)ccc1-c1nn[nH]n1,inactive: -4.41%
15,CC(C)=N/N=C(\N)N[N+](=O)[O-],inactive: 24.6%
16,CC(C)c1nc(Nc2ccccc2)n(P(=O)(N(C)C)N(C)C)n1,inactive: -10.1%
17,COc1ccc(C2=NCC(CBr)S2)cc1 (stereo not given),inactive: 14.7%
18,Cc1ccc(NP(=O)(Oc2ccccc2)Oc2ccccc2)nc1,inactive: 20.1%
19,O=[N+]([O-])c1cc([N+](=O)[O-])c(CCNc2ccccc2)c([N+](=O)[O-])c1,inactive: 20.8%
20,O=[N+]([O-])c1cccc2n[nH]nc12,inactive: 10.1%
21,O=[N+]([O-])c1ncn(CCn2ncnc2[N+](=O)[O-])n1,inactive: 17.7%
